Source: paper PMC9888386 (The Journal of Clinical Investigation, 2023)

The chains behind the UniProt entries cited, without tags or fusion partners.
UniProt Q14145, whole entry: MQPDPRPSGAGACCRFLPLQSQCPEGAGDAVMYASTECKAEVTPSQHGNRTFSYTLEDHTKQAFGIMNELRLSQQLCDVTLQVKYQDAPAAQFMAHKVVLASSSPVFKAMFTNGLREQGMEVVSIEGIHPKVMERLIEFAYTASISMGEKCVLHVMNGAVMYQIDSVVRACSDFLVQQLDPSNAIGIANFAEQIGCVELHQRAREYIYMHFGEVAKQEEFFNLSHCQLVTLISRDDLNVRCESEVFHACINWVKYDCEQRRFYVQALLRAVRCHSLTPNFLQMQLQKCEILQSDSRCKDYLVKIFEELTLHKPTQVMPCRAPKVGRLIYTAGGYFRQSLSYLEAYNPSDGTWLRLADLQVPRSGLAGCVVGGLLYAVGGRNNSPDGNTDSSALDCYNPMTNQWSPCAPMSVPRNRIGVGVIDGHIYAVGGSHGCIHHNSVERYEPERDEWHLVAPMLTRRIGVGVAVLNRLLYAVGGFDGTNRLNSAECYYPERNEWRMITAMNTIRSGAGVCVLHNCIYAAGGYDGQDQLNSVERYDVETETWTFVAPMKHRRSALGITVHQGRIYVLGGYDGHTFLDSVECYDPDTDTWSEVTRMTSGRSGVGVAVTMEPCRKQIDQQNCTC

Target: T1, KEAP1 (microscale thermophoresis assay) (UniProt Q14145 1-624)
T1 construct: KEAP1 as used in the microscale thermophoresis assay; May be the same as GST-KEAP1-WT
Assay: MST; microscale thermophoresis; conditions in the Supplemental Methods, not shown

B1: purified FAM117B protein (natural protein, UniProt Q6P1L5 1-589, looked up)
chain: MSQRVRRNGSPTPAGSLGGGAVATAGGPGSRLQPMRATVPFQLKQQQQQQHGSPTRSGGGGGGNNNGGCCGGASGPAGGGGGGGPRTASRSTSPTRGGGNAAARTSPTVATQTGASATSTRGTSPTRSAAPGARGSPPRPPPPPPLLGTVSSPSSSPTHLWTGEVSAAPPPARVRHRRRSPEQSRSSPEKRSPSAPVCKAGDKTRQPSSSPSSIIRRTSSLDTLAAPYLAGHWPRDSHGQAAPCMRDKATQTESAWAEEYSEKKKGSHKRSASWGSTDQLKEIAKLRQQLQRSKHSSRHHRDKERQSPFHGNHAAINQCQAPVPKSALIPVIPITKSTGSRFRNSVEGLNQEIEIIIKETGEKEEQLIPQDIPDGHRAPPPLVQRSSSTRSIDTQTPGGADRGSNNSSRSQSVSPTSFLTISNEGSEESPCSADDLLVDPRDKENGNNSPLPKYATSPKPNNSYMFKREPPEGCERVKVFEECSPKQLHEIPAFYCPDKNKVNFIPKSGSAFCLVSILKPLLPTPDLTLKGSGHSLTVTTGMTTTLLQPIAVASLSTNTEQDRVSRGTSTVMPSASLLPPPEPIEEAEG
notes: FAM117B; Used for the GST pull-down; source: purified
Kd: 7.97 µM
